## Apparent affinities of Ab-14 variants for a coronavirus HR2 peptide

Data: MIT Lincoln Laboratory AlphaSeq set, Engelhart et al. 2022, doi:10.1038/s41597-022-01779-4, as distributed in FLAb.

Antigen: PDVDLGDISGINAS, a 14-residue peptide of the SARS-CoV-2 spike HR2 region.

The variants keep the heavy chain, the linker and the frameworks of Ab-14 (scFv order VH, the linker GGGGSGGGGSGGGGS, VL).
VH: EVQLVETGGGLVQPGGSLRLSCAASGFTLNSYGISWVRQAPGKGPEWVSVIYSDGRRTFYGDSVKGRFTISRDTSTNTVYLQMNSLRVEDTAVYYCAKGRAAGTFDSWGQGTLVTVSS
VL: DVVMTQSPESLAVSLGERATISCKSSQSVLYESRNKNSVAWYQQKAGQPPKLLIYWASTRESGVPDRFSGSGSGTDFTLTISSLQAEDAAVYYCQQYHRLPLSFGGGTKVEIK

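The parent was found by panning a naive human phage display library on the peptide. AAYL50 was designed without a model: most single CDR substitutions and a random sample of double and triple ones. Affinity was read by AlphaSeq, a pooled yeast mating assay with surface-displayed partners. Mating (16 h, 30 °C) was followed by selection of diploids and sequencing of their barcodes. Each replicate has its own calibration line, from reference interactions of the BCL2 family. There are three technical replicates.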

The parent's light chain CDRs are KSSQSVLYESRNKNSVA, WASTRES, QQYHRLPLS; each variant's own CDRs replace them letter for letter. All variants listed here change S38 of the VL, counted from its first residue. Each Kd is an estimate from the mating assay, the geometric mean of the replicates in which the pair was seen; lower is stronger. An entry "nd" has no value in the source: the pair was not observed among the diploids in any replicate. This suggests poor binding but is not conclusive. The list is sorted by this average, lowest first, undetected variants last. For reference, the parent read 4.4 nM as the reference entry and 48 nM as a member of this library.

Variant KSSQSVLYESRNKHAVA, WASTRES, QQYHRLPLV showed 4.6 nM (3 of 3 replicates).
Variant KSSQSVLYESSNKNPVA, WASTRES, QQYHRLPLC showed 4.9 nM (3 of 3 replicates).
Variant KSSHSVLYESRNTNDVA, WASTRES, QQYHRLPLS showed 17 nM (3 of 3 replicates).
Variant KSSQSVLYESRNKNAVA, WASIRES, QQYHRMPLS showed 24 nM (3 of 3 replicates).
Variant KSSQSVLYDSRNYNGVA, WASTRES, QQYHRLPLS showed 250 nM (3 of 3 replicates).
Variant KSSQSVLYESRNKNCVA, WASTRES, QQYHRLPLS showed 350 nM (3 of 3 replicates).
Variant KSSQSVQYQSRNKNTVA, WASTRES, QQYHRLPLS showed 770 nM (1 of 3 replicates).
Variant KSSQSVLSESRNKNQVA, WASRRES, QQYHRLPLS showed 3.4 µM (2 of 3 replicates).
Variant KSSQSVLSESKNKNYVA, WASTRES, QQYHRLPLS showed 3.8 µM (3 of 3 replicates).
Variant KSSQEVLYESRNRNTVA, WASTRES, QQYHRLPLS showed 4.8 µM (3 of 3 replicates).
Variant KSMQSVLYESRNKNEVA, WAITRES, QQYHRLPLS showed 5.7 µM (3 of 3 replicates).
Variant KSSQSVLYESRNMNQVM, WASTRES, QQYHRLPLS showed 18 µM (3 of 3 replicates).
Variant KSSQSVLYESRNKNLVA, FASTRES, QQQHRLPLS showed 29 µM (1 of 3 replicates).
Variant KSSQSVLEESRNKNIVA, WASTRES, QQYHRLPRS showed 66 µM (3 of 3 replicates).
Variant KSSQSVLYESRNKNLVA, WASTRQP, QQYHRLPLS showed 290 µM (1 of 3 replicates).
Variant KSSQSVLYESRNKNIVA, WACTRES, QQYHRLPLV showed 290 µM (2 of 3 replicates).
Variant KSSQSPLYESRNKNFVA, WASTHES, QQYHRLPLS showed 1.0 mM (1 of 3 replicates).
Variant KSSQSVLYESHNKNPVA, WASTRES, QQYHRLQLS showed nd (0 of 3 replicates).
Variant ISSQSVLYESRNKNWVA, WASTRES, QQYHRLPLS showed nd (0 of 3 replicates).
Variant KSSQSVLYESRNKNKVA, WAWTRES, QQYHMLPLS showed nd (0 of 3 replicates).
Variant KSSQSVLYESRNKNFVA, WASTYES, QQYHRLELS showed nd (0 of 3 replicates).
Variant KSSQSVLYEERNKNLVA, WASTRES, QQYHRLPVS showed nd (0 of 3 replicates).
Variant KSSQSVLYESRNKNVVA, WASTRER, YQYHRLPLS showed nd (0 of 3 replicates).
Variant KSSQSVLYESRNKNDVA, WASTRWS, QQYHRLPQS showed nd (0 of 3 replicates).
Variant KSSQSVLYESRNKNAVA, IASTRES, QQYHRLPGS showed nd (0 of 3 replicates).
Variant KSSQSVLYESRNKNLVA, WASTRES, QQYADLPLS showed nd (0 of 3 replicates).
Variant KSSQSVLYEARNKNLVA, WASTRES, QQYHQLPLS showed nd (0 of 3 replicates).
Variant KSSQSVLYESRFKRGVA, WASTRES, QQYHRLPLS showed nd (0 of 3 replicates).
Variant KSSQSVLYESRMKNTVA, WASTRES, QQYTRLPLS showed nd (0 of 3 replicates).
Variant KSSQSVLKESRNKNYVA, WASTRES, QQYHRLPLS showed nd (0 of 3 replicates).
Variant MQSQSVLYESRNKNIVA, WASTRES, QQYHRLPLS showed nd (0 of 3 replicates).
Variant KSSQSVNYESRNKNKVA, WASTRES, QSYHRLPLS showed nd (0 of 3 replicates).
Variant KSSQSVLYESRNKNWVA, WASTRES, QQYHRLPLS showed nd (0 of 3 replicates).
Variant KSSQSVLYESRNKNYVA, WASTEES, QNYHRLPLS showed nd (0 of 3 replicates).

As a blank, each scFv also met three strains without target: over library AAYL50, 18% of these pairings were detected, typically at 15 µM and seldom below 970 nM.